Results from PMC4792735 (Clinical pharmacokinetics, 2016).

Target: T1, human MATE1 (Homo sapiens, UniProt Q96FL8)
T1 sequence (Q96FL8 1-570): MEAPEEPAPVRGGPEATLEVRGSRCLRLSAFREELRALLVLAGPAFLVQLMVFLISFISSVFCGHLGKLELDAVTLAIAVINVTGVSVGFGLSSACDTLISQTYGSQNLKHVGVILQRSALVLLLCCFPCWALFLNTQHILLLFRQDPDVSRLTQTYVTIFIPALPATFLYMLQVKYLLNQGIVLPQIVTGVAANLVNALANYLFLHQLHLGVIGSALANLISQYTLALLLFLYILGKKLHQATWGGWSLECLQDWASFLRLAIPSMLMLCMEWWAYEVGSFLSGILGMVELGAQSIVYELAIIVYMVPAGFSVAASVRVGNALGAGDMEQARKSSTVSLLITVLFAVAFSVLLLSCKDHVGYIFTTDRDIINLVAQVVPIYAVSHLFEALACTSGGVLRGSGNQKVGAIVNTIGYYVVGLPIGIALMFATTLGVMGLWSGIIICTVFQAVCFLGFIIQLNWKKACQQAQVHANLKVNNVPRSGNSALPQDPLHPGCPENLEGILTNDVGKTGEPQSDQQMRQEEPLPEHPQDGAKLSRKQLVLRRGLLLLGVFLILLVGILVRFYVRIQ
Assay: cell-based

IC50: 4.04 µM
Compound: CNC(=C[N+](=O)[O-])NCCSCc1ccc(CN(C)C)o1 [ranitidine]
